Source: PubChem BioAssay AID1446 (The Scripps Research Institute Molecular Screening Center, 2008)
This is a selection; strong and weak results do not stand in their true shares. Activity calls are given as the source filed them.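 The calls were made as follows: active = inhibition above the campaign mean plus 3 SD over all tested compounds (cut at about 24% in these data); inactive = the rest.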

Test: viability loss in Ba/F3 EpoR-JAK2V617F cells – cell-based, luminescence, JAK2V617F inhibitor project, primary screen (AID 1446);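 also: cytokine-independent growth of Ba/F3 cells driven by EpoR plus mutant JAK2; 0% = DMSO-treated cells and 100% = JAK inhibitor I control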
Settings: ATP luminescence, at 5.6 µM, stronger effect = higher value

| Structure (SMILES) | inhibition |
| --- | --- |
| CCCOc1ccc(C)cc1CN(CCCl)CCCl | inactive: -4.35% |
| COc1cc(OC)cc(C(=O)NCC2(N3CCOCC3)CCCCC2)c1 | inactive: 1.31% |
| CCC(CO)(C(=O)OC1CN2CCC1CC2)c1ccccc1 (centres undefined) | inactive: -2.23% |
| CC(C)(C)OC(=O)N1CCC(Nc2ccccc2)CC1 | inactive: 2.23% |
| CCOc1ncccc1C(=O)NCC1(N2CCOCC2)CCCCC1 | inactive: -1.71% |
| CN(C)c1ccc(C(=O)NCC2(N3CCCCC3)CCCCC2)cc1 | inactive: 0.21% |
| CCN1CCC(Nc2cccc(F)c2)CC1 | inactive: 3.83% |
| c1ccc(CN2CCC(Nc3ccccc3)CC2)cc1 | inactive: 0.49% |
| N#Cc1ccc(C(=O)NCC2(N3CCCCC3)CCCCC2)cc1 | inactive: -1.18% |
| O=C(OC1CN2CCC1CC2)C1c2ccccc2C=Cc2ccccc21 (centres undefined) | inactive: -1.92% |
| N/C(=N\O)c1c(N)no[n+]1[O-] | inactive: 2.1% |
| COc1ccc(C(=O)NCC2(N3CCOCC3)CCCCC2)cc1OC | inactive: -0.68% |
| CN1CCC(Nc2cccc(F)c2)CC1 | inactive: -1.96% |
| CC(C)c1ccc(NC2CCN(C(=O)OC(C)(C)C)CC2)cc1 | inactive: -3.11% |
| CN(C)c1cccc(C(=O)NCC2(N3CCCCC3)CCCCC2)c1 | inactive: -1.96% |
| COc1ccc(CN(CCCl)CCCl)cc1Cl | inactive: -4.02% |
| O=C(NCC1(N2CCOCC2)CCCCC1)c1cc(=O)[nH]c2ccccc12 | inactive: 0% |
| COc1ccc(NC2CCN(C(=O)OC(C)(C)C)CC2)cc1 | inactive: -3.88% |
| CN1CCN(CCOC(=O)C(O)(c2ccccc2)c2ccccc2)CC1 | inactive: -2.97% |
| N#CC1(Nc2ccccc2)CCN(CCc2ccccc2)CC1 | inactive: -6.44% |
| O=C(NCC1(N2CCCCC2)CCCCC1)c1cccc([N+](=O)[O-])c1 | inactive: -1.38% |
| Cc1ccc(OCC(C)C)c(CN(CCCl)CCCl)c1 | inactive: 3.66% |
| COc1ccc(NC2CCN(CCc3ccccc3)CC2)c(OC)c1 | inactive: -3.84% |
| CCOc1ccc(C)cc1CN(CCCl)CCCl | inactive: -0.98% |
| N#CC1(Nc2ccccc2)CCN(Cc2ccccc2)CC1 | inactive: -3.67% |
| O=C(OC1CN2CCC1CC2)C1c2ccccc2Oc2ccccc21 (centres undefined) | inactive: 1.51% |
| CCOC(=O)N1CCC(Nc2ccc(OC)cc2)CC1 | inactive: 1.71% |
| O=C(NCC1(N2CCOCC2)CCCCC1)c1cc2ccccc2o1 | inactive: -1.29% |
| COc1ccc(C(=O)NCC2(N3CCCCC3)CCCCC2)c(OC)c1OC | inactive: -1.49% |
